Values of other authors in publication PMC9134235 (ACS Omega, 2022).

Tested on: muscarinic receptors
Conditions: 100 μM – 1 mM; cited from earlier work

## N=C(N)NC(=O)c1nc(Cl)c(N)nc1N [Amiloride, amiloride]
  effect on Emax of acetylcholine: reduction of the Emax
